Experimental data as given in patent publication US20140161803A1, “CONSTITUTIVELY ACTIVE UPAR VARIANTS AND THEIR USE FOR THE GENERATION AND ISOLATION OF INHIBITORY ANTIBODIES” (IFOM Fondazione Istituo FIRC di Oncologia Molecolare, priority 2011, published 2014).

System: PC-3 tumor
Test: Immunohistochemistry of xenografted PC-3 tumors (Ki-67, cleaved Caspase-3)
Format: in vivo, Balb C nu/nu mice
Conditions: tumors 8 weeks after xenografting; 10.0 mg/kg i.p. bi-weekly

B1: 13F6: non-inhibitory monoclonal anti-uPAR antibody raised against GFDuPAR-hFc; IgG1 κ (antibody, V domains shown)
VH: ELVKPGASVELSCKASGYTFTSYWMNWVKQRPGRGLEWIGRIAPNSGGTQYSGKFKTKATLTVDKSSSTAYMQLSSLTSEDSAVYYCARGDYFGHFDYWGQGTTLTVS
VL: SLSASLGGKVTITCKASQDINNYIAWYQHKPGKGPRLLIHYTSILQPGIPSRFSGSGSGRDYSFSISNLEPEDIATYYCLQCDNLLTFGAGTKLELK
number of cells undergoing apoptosis (cleaved Caspase-3 reactivity): did not cause any significant changes | number of proliferating cells (Ki-67 positivity): did not cause any significant changes
